Laboratory results: ChEMBL document CHEMBL3853357, “Discovery of a Series of 5,11-Dihydro-6H-benzo[e]pyrimido[5,4-b][1,4]diazepin-6-ones as Selective PI3K-δ/γ Inhibitors” (ACS Med Chem Lett, 2016)

Assays:
Format in all cases: functional, cell-based
[1] = Antiproliferative activity against human MOLT4 cells after 3 days by CellTiter-Glo assay; settings: MOLT-4, 72 h
[2] = Antiproliferative activity against human MV4-11 cells after 3 days by CellTiter-Glo assay; settings: MV4-11, 72 h
[3] = Antiproliferative activity against human MOLM14 cells after 3 days by CellTiter-Glo assay; settings: MOLM-14, 72 h
[4] = Antiproliferative activity against human Jurkat cells after 3 days by CellTiter-Glo assay; settings: 72 h

Structure (SMILES): CC[C@H](Nc1ncnc2[nH]cnc12)c1nc2cccc(F)c2c(=O)n1-c1ccccc1 [IDELALISIB]
- IC50 [1]: 10.6 µM
- IC50 [2]: 6.3 µM
- IC50 [3]: 3.6 µM
- IC50 [4]: 7.9 µM
